Measured values as given in PubChem BioAssay AID624202 (National Center for Advancing Translational Sciences (NCATS), 2012).
The list shows a part of the results, in another mix than the full data. Activity calls are given as the source filed them. Calls come from the whole dose curve; as a rule, active = well fitted activation curve with a large enough effect; inconclusive = small, poorly fitted or top-dose-only effect; inactive = no such curve, though single readings can be large or run the other way.

Experiment: qHTS Assay to Identify Small Molecule Activators of BRCA1 Expression; note: nearly all actives have a fitted effect of over 80% in size
Details: MCF7-BRCA1-FFLuc reporter, luminescence, 48 h, scaled: vehicle 0%, 10 µM genistein 100%; at 46.1 µM (top of the series)

Row | Compound | activation
1 | c1nnnn1CCn1cnnn1 | inactive: 16.3%
2 | NC(=O)Nc1ccc([As](=O)(O)O)cc1 | inactive: 3.43%
